This experiment deals with ERα (Homo sapiens, UniProt P03372). As to the kind of experiment: ERE luciferase reporter gene assay in T47D-KBluc cells (target engagement). Conditions: read-out: ER-α Luciferase IC50, 10% FBS, 24 hours, Table 3 cereblon centric PROTACs. As to the method:
Chimeric molecules were assessed for target engagement in T47D cells using the commercial kit of ERE luciferase reporter gene assay. In the assay, 10% FBS was included and estrogen level was measured to be 10 pM.
ERE Luciferase Assay for Compounds in Table 1-3.
T47D-KBluc cells (ATCC #CRL_2865, T47D human breast cancer cells stably transfected with estrogen responsive element/promoter/luciferase reporter gene) were seeded into 96-well white opaque plates in RPMI growth medium supplemented with 10% fetal bovine serum and allowed to adhere overnight in a 37° C. humidified incubator. The following day, cells were treated with PROTACs in a 12-point concentration curve (top final concentration of 300 nM with subsequent concentrations being 3-fold less with 2 pM being the lowest concentration in the assay). Each PROTAC was tested independently in two experiments on 96-well plates. After 24 hours, media was removed and lysis buffer was added to the wells. Following lysis, Bright-Glo™ Luciferase Assay Substrate (Prornega, Madison Wis.) was added and the luciferase activity was measured using a Cytation 3 plate reader (TioTek™, Winooski, Vt.). Each compound was assayed in duplicates and the activity was calculated as IC50 using GraphPad Prism software (San Diego, Calif.).
In general terms: In a reporter assay the amount or activity of a reporter protein is the signal.

Amino acid sequences for entries named in this document (tags omitted).
UniProt P03372, whole entry: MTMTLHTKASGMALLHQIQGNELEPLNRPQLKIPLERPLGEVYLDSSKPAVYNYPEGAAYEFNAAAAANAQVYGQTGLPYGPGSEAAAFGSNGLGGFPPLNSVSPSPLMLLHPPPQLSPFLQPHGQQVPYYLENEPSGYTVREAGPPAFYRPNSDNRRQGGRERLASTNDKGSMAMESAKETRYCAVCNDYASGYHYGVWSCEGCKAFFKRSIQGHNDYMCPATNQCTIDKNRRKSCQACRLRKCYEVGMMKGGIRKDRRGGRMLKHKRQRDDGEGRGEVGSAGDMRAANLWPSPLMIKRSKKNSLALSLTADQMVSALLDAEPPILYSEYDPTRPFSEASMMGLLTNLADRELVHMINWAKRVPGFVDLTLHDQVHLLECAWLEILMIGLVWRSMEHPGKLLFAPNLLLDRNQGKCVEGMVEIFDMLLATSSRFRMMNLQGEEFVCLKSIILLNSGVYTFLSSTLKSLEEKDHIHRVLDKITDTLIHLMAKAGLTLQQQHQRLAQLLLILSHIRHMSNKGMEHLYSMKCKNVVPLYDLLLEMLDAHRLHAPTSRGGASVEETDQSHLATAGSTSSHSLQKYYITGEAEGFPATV

Molecules are shown by their SMILES.

Broadly, the IC50 is the concentration that inhibits the measured activity by half. Regarding `O=C1CCC(N2Cc3c(cc(F)c(N4CCN(CCCOc5ccc(Oc6c(-c7ccc(OC(F)(F)F)cc7)sc7cc(O)ccc67)cc5)CC4)c3F)C2=O)C(=O)N1` (stereo not shown), the IC50 was 58.2 nM.

Source of the values: patent US11384063B2, “Modulators of estrogen receptor proteolysis and associated methods of use” (Arvinas Operations, Inc., priority 2017, dated 2022).
